# logP (octanol/water) values, as collected for the OPERA models

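OPERA's authors assembled the values from existing databases and did not measure them anew. The files give a single number for a compound and property, which may rest on several reports. Method and conditions are not stated for these values. The measured form (salt, isomer or mixture) is not always the one drawn. Unmarked limits or estimates from the upstream databases cannot be ruled out.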

The octanol-water partition coefficient is given as log10; larger values mean a more lipophilic compound.
"n/a" marks a cell with nothing listed here.

* O=C1N(CO)C2C(N1CO)N(CO)C(=O)N2CO (stereo not given): logP -2.7
* COc1cc2nc(N3CCN(C(=O)C4CCCO4)CC3)nc(N)c2cc1OC (stereo not given) [Terazosin]: logP 1
* CCCCCCCCCCC[C@@H](C[C@@H]1OC(=O)[C@H]1CCCCCC)OC(=O)[C@H](CC(C)C)NC=O [Orlistat]: logP 8.565
* Oc1cc(O)ncn1 [6-Hydroxy-4(1H)-pyrimidinone]: logP -2.8
* CSSSC [Trisulfide, dimethyl]: logP 1.94
* CCOC(=O)C(C)O (stereo not given) [Ethyl lactate]: logP 0.7
* CCCCCCCCN=c1ccn(CCCCCCCCCCn2ccc(=NCCCCCCCC)cc2)cc1.Cl.Cl [Octenidine hydrochloride]: logP 1.5
* CC1(COc2ccc(CC3SC(=O)NC3=O)cc2)CCCCC1 (stereo not given) [Ciglitizone]: logP 4
* O=C1OC(=O)c2ccc3c4ccc5c6c(ccc(c7ccc1c2c73)c64)C(=O)OC5=O [Perylo[3,4-cd:9,10-c'd']dipyran-1,3,8,10-tetrone]: logP 1.3
* NCCNCCO [N-(Hydroxyethyl)ethylenediamine]: logP -1.46
* CN=c1oc2c(n1C)CCCC2: logP 1.93
* CC1(C)S[C@@H]2[C@H](N3C(=O)[C@@H](c4ccccc4)NC3(C)C)C(=O)N2[C@H]1C(=O)O [Hetacillin]: logP 1.3
* Nc1ccc(Br)cn1 [2-Amino-5-bromopyridine]: logP 1.39
* O=C(O)CC(=O)CC(=O)O [3-Ketoglutaric acid]: logP 0.316
* Cc1cc(/N=N/c2ccc(Nc3nc(N)nc(Cl)n3)c3c(S(=O)(=O)[O-])cccc23)c(C)cc1/N=N/c1cc(S(=O)(=O)[O-])ccc1S(=O)(=O)[O-].[Na+].[Na+].[Na+] [C.I. Reactive Orange 35]: logP -3.46
* CCOc1ccncn1 [4-ethoxypyrimidine]: logP 0.97
* CCCOC(=O)n1c(-c2cscn2)nc2ccccc21 [Propyl 2-(1,3-thiazol-4-yl)benzimidazole-1-carboxylate]: logP 2.98
* CNCC(=O)N=C(C)O [N-(N-Methylglycyl)ethanimidic acid]: logP -1.56
* Cn1c(N)c2ncn(Cc3ccccc3)c2nc1=O [6-Amino-9-benzyl-1-methyl-1,9-dihydro-2H-purin-2-one]: logP 0.65
* Cc1cc(O)c(Cl)c(C)c1Cl [2,4-Dichloro-3,5-dimethylphenol]: logP 2.8
* CC(=O)Oc1cc(OC(C)=O)cc(C(C)=O)c1 [5-Acetyl-1,3-phenylene diacetate]: logP 1.5
* CCC(Cl)Cl [1,1-Dichloropropane]: logP 2.3
* Cc1cc(N)n(-c2ccccc2)n1 [3-Methyl-1-phenyl-1H-pyrazol-5-amine]: logP 1.773
* COc1ccc(Nc2ccc(OC)cc2)cc1 [4,4'-Dimethoxydiphenylamine]: logP 3.19
* CCCCCCCCCCOC(=O)c1ccccc1C(=O)OCCCCCC [Hexyl decyl phthalate]: logP 8.1
* NC(=O)c1ccc[n+]([C@@H]2O[C@H](COP(=O)([O-])OP(=O)(O)OC[C@H]3O[C@@H](n4cnc5c(N)ncnc54)[C@H](O)[C@@H]3O)[C@@H](O)[C@H]2O)c1 [Nadide]: logP -4
* CCCCCCCCCCCN [Undecylamine]: logP 4.63
* FC(F)(F)C(F)(F)C(F)(F)C(F)(F)C(F)(F)C(F)(F)F [Perfluorohexane]: logP 4.5
* CC(C)CCCCCCCCCCCC/C=C/C(=O)O [Isooctadecenoic acid]: logP 8.23
* CCCCCCCC(=O)OCC(COC(=O)CCCCCCC)OC(=O)CCCCCCC [Tricaprylin]: logP 6.7
* NC(=O)C1=CN([C@@H]2O[C@H](CO[P@@](=O)([O-])O[P@@](=O)([O-])OC[C@H]3O[C@@H](n4cnc5c(N)ncnc54)C(O)C3O)C(O)C2O)C=CC1.[Na+].[Na+] (some centres undefined) [Dihydronicotinamide-adenine dinucleotide, disodium salt]: logP -1.96
* COc1ccc(C(=O)CC(=O)c2ccc(C(C)(C)C)cc2)cc1 [1-(4-tert-Butylphenyl)-3-(4-methoxyphenyl)propane-1,3-dione]: logP 6.1
* CC(=O)N[C@@H](Cc1ccc(O)cc1)C(=O)N[C@H](C(N)=O)C(C)C [L-Valinamide, N-acetyl-L-tyrosyl-]: logP -0.2
* O=S(=O)([O-])CC(O)CNC1CCCCC1.[Na+] (stereo not given) [Sodium 3-(cyclohexylamino)-2-hydroxypropane-1-sulfonate]: logP -3.8
* COc1cc(C#N)ccc1O [4-Hydroxy-3-methoxybenzonitrile]: logP 0.82
* CC(N)C12CC3CC(CC(C3)C1)C2 (stereo not given) [Rimantadine]: logP 3.6
* O=S(=O)([O-])c1cccc(/N=N/c2ccc(/N=N/c3ccc(Nc4ccccc4)c4c(S(=O)(=O)[O-])cccc34)c3ccccc23)c1.[Na+].[Na+] [C.I. Acid Blue 113]: logP -1.16
* C[N+](C)(CC[N+](C)(C)CC(O)COCC(F)(F)C(F)F)CC(O)COCC(F)(F)C(F)F.[Cl-].[Cl-] (stereo not given): logP -0.434
* CC(C)OC(=O)[C@@H]1CC2=CC(=O)CC[C@]2(C)[C@H]2CC[C@@]3(C)[C@@H](CC[C@@]34CCC(=O)O4)[C@H]12: logP 2.82

Excerpt, the final 2 entries:

SMILES	name	logP
C[N+](C)(CC[N+](C)(C)CC(O)COCC(F)(F)C(F)F)CC(O)COCC(F)(F)C(F)F.[Cl-].[Cl-] (stereo not given)	n/a	-0.434
CC(C)OC(=O)[C@@H]1CC2=CC(=O)CC[C@]2(C)[C@H]2CC[C@@]3(C)[C@@H](CC[C@@]34CCC(=O)O4)[C@H]12	n/a	2.82

Data: OPERA 2.9 data sets, kmansouri/OPERA on GitHub.